Patent publication US7645449B2, “Sensitizing cells for apoptosis by selectively blocking cytokines” (priority 2003, dated 2010)

Legend:
[1] = system: LNCaP prostate cancer cells; assay: MTS viability of LNCaP cells: chemotherapy- and anti-CD95-induced apoptosis; assay type: cell-based, human
Experimental: (§1) Therefore, it appears that IL-4 is able to exert a significant effect on survival and growth of tumor cells, including a faster expansion of cells that survive chemotherapy treatment.
(§2) Human LNCAP prostate cancer cell line and human MDA-MB-231 breast cancer cell line were obtained from the American Type Culture Collection (ATCC, Manassas, Va.). Human RT112 bladder carcinoma cell line was kindly provided by Dr. M. Cippitelli (Regina Elena Cancer Institute, Rome, Italy). Cells were grown in RPMI 1640 (Life Technologies Inc., Grand Island, N.Y.) containing 10% heat inactivated fetal bovine serum supplemented with L-Glutamine 2 mM and 100 units/ml Penicillin-Streptomycin. […]
(§3) Cell viability was determined using the CellTiter 96® AQueous One Solution Cell Proliferation Assay (Promega, Madison, Wis.), according to the manufacturer's instructions. The assay is based on reduction of 3-(4,5-dimethylthiazol-2-yl)-5-(3-carboxymethoxyphenyl)-2-(4-sulfophenyl)-2H-tetrazolium, inner salt (MTS) to a colored formazan product that is measured spectrophotometrically. […] After 3 hours of incubation at 37° C. with the MTS reagent, the plates were read on a Multilabel Counter (Victor2, Wallac, Perkin-Ehmer Inc., Norwalk, Conn.) and dye absorbance was measured at 490 nm.
(§4) The percentage of apoptotic cells was derived from the percentage of viable cells that was directly calculated from the values of the MTS assay. […]

[2] = system: MDA-MB-231 breast cancer cells; assay: MTS viability of MDA-MB-231 cells: chemotherapy- and anti-CD95-induced apoptosis; assay type: cell-based, human
Experimental: as §1, §2, §3, §4

[3] = cytokine pretreatment, 30 ng/ml anti-CD95 agonistic antibody

IL-2: human recombinant IL-2, control cytokine
anti-CD95-induced apoptosis of LNCaP cells [1, 3]: did not exert any protective effect
drug-induced death of LNCaP cells ([1]; two days cytokine pretreatment (20 ng/ml), 300 ng/ml cisplatin or 1 μM vincristine): underwent apoptosis in response to chemotherapeutic agents
anti-CD95-induced apoptosis of MDA-MB-231 cells [2, 3]: did not exert any protective effect
drug-induced death of MDA-MB-231 cells ([2]; two days cytokine pretreatment (20 ng/ml), 300 ng/ml cisplatin or 5 μM daunorubicin): underwent apoptosis in response to chemotherapeutic agents
